According to the NIST ThermoML archive (doi:10.1021/je400821q):

Test: osmotic coefficient (dimensionless); mn = molality of the nth substance listed, in mol/kg
Settings: 308.15 K, Liquid, Osmomat K-7000

CCC[N+](CCC)(CCC)CCC.[Br-] [tetrapropylammonium bromide] + O
Settings | osmotic coefficient
m1 = 0.00795 | 0.989
m1 = 0.01468 | 0.9667
m1 = 0.03035 | 0.9379
m1 = 0.03901 | 0.9265
m1 = 0.04468 | 0.9201
m1 = 0.0568 | 0.9063
m1 = 0.07479 | 0.8896
m1 = 0.09397 | 0.8732
m1 = 0.1371 | 0.8524
m1 = 0.1722 | 0.8415
m1 = 0.215 | 0.8321
m1 = 0.2531 | 0.8261
m1 = 0.2969 | 0.8201
